# Data published in patent publication US20210196678A1, “SELECTIVE ANDROGEN RECEPTOR DEGRADER (SARD) LIGANDS AND METHODS OF USE THEREOF” (University of Tennessee Research Foundation, priority 2018, published 2021).
# What was measured:
# [1] = SARD compound serum concentrations in Hershberger rats (LC-MS/MS)
# full length AR = test: LNCaP or AD1 degradation (full length AR, Western blot); format: cell-based
compound,measurement,setting,value
C[C@](O)(Cn1cc(F)cn1)C(=O)Nc1ccc(C#N)c(C(F)(F)F)c1 [Compound 1002],Serum Conc.,"[1]; Table 4, rats, 20 mg/kg",33 nM
C[C@](O)(Cn1cc(Cl)cn1)C(=O)Nc1ccc(C#N)c(C(F)(F)F)c1 [Compound 1049],Degradation (% at 3 μm),full length AR,42%
"C[C@](O)(Cn1cc(Br)c(F)n1)C(=O)Nc1ccc(C#N)c(C(F)(F)F)c1 [Compound 1058, (S)-3-(4-Bromo-3-fluoro-1H-pyrazol-1-yl)-N-(4-cyano-3-(trifluoromethyl)phenyl)-2-hydroxy-2-methylpropanamide]",Serum Conc.,"[1]; Table 2, rats, 20 mg/kg daily for 13 days",404 nM
same,Serum Conc.,"[1]; Table 4, rats, 20 mg/kg",404 nM
C[C@](O)(Cn1cc(Cl)c(Br)n1)C(=O)Nc1ccc(C#N)c(C(F)(F)F)c1 [Compound 1066],Serum Conc.,"[1]; Table 4, rats, 20 mg/kg",19 nM
